The chains are these.
B1: anti-LILRB1 antibody No. 13 (antibody, human IgG4 S228P, kappa, F234A L235A, V domains shown)
VH: QVQLVQSGAEVKKPGSSVKVSCKASGGTFSGYYIHWVRQAPGQGLEWMGWISPSSGGTIYAQKFQGRVTITADESTSTAYMELSSLRSEDTAVYYCARDISVRVVQAFDYWGQGTLVTVSS
VL: DIQMTQSPSSLSASVGDRVTITCRASQSISNYLNWYQQKPGKAPKLLIYAASRLQSGVPSRFSGSGSGTDFTLTISSLQPEDFATYYCQQSYSFPFTFGQGTKVEIKR
B2: anti-LILRB1 antibody No. 18 (antibody, human IgG4 S228P, kappa, F234A L235A, V domains shown)
VH: QVQLVQSGAEVKKPGSSVKVSCKASGGTFSSYDINWVRQAPGQGLEWMGWIIPTSGSTNYAQKFQGRVTITADESTSTAYMELSSLRSEDTAVYYCARDSQSSYIGYFDVWGQGTLVTVSS
VL: DIQMTQSPSSLSASVGDRVTITCRASQSISRWLNWYQQKPGKAPKLLIYAASRLQSGVPSRFSGSGSGTDFTLTISSLQPEDFATYYCQQSESFPWTFGQGTKVEIKR
B3: anti-LILRB1 antibody No. 14 (antibody, human IgG4 S228P, kappa, F234A L235A, V domains shown)
VH: QVQLVQSGAEVKKPGSSVKVSCKASGGTFSSYYMHWVRQAPGQGLEWMGWISPYLGITNYAQKFQGRVTITADESTSTAYMELSSLRSEDTAVYYCARAGYQQAQYWFDYWGQGTLVTVSS
VL: DIQMTQSPSSLSASVGDRVTITCRASQSISNYLNWYQQKPGKAPKLLIYATSNLQSGVPSRFSGSGSGTDFTLTISSLQPEDFATYYCQQSYSFPWTFGQGTKVEIKR
B4: anti-LILRB1 antibody No. 22 (antibody, human IgG4 S228P, kappa, F234A L235A, V domains shown)
VH: QVQLVQSGAEVKKPGSSVKVSCKASGGTFSSYAMHWVRQAPGQGLEWMGGISSSGGTTYYADSVKGRVTITADESTSTAYMELSSLRSEDTAVYYCARALGVVGGTWFDYWGQGTLVTVSS
VL: DIQMTQSPSSLSASVGDRVTITCRASQSIGSYLNWYQQKPGKAPKLLIYDASTLQSGVPSRFSGSGSGTDFTLTISSLQPEDFATYYCQQSYSFPWTFGQGTKVEIKR
B5: anti-LILRB1 antibody No. 16 (antibody, human IgG4 S228P, kappa, F234A L235A, V domains shown)
VH: QVQLVQSGAEVKKPGSSVKVSCKASGGTFSSYYMTWVRQAPGQGLEWMGGISPILGVTNYAQKFQGRVTITADESTSTAYMELSSLRSEDTAVYYCARLLVGVSETYFDYWGQGTLVTVSS
VL: DIQMTQSPSSLSASVGDRVTITCRASQDISSWLNWYQQKPGKAPKLLIYAASSLQSGVPSRFSGSGSGTDFTLTISSLQPEDFATYYCQQSYSFPWTFGQGTKVEIKR
B6: anti-LILRB1 antibody No. 11 (antibody, human IgG4 S228P, kappa, F234A L235A, V domains shown)
VH: QVQLVQSGAEVKKPGSSVKVSCKASGGTFSSYYVHWVRQAPGQGLEWMGWISPYSGGTNYAQKFQGRVTITADESTSTAYMELSSLRSEDTAVYYCARDYYVSAYGAFDYWGQGTLVTVSS
VL: DIQMTQSPSSLSASVGDRVTITCRASQSISNYLNWYQQKPGKAPKLLIYDASTLQSGVPSRFSGSGSGTDFTLTISSLQPEDFATYYCQQSYSFPWTFGQGTKVEIKR
B7: anti-LILRB1 antibody No. 8 (antibody, V domains shown)
VH: QVQLVQSGAEVKKPGSSVKVSCKASGGTFSSYGIHWVRQAPGQGLEWMGWIIPISGTTNYAQKFQGRVTITADESTSTAYMELSSLRSEDTAVYYCARVGGVGLYVFDVWGQGTLVTVSS
VL: not shown

Chains of the proteins cited; added tags and fusions are not shown. Residues count along the entry.
UniProt Q8NHL6, 24-458 limits assumed: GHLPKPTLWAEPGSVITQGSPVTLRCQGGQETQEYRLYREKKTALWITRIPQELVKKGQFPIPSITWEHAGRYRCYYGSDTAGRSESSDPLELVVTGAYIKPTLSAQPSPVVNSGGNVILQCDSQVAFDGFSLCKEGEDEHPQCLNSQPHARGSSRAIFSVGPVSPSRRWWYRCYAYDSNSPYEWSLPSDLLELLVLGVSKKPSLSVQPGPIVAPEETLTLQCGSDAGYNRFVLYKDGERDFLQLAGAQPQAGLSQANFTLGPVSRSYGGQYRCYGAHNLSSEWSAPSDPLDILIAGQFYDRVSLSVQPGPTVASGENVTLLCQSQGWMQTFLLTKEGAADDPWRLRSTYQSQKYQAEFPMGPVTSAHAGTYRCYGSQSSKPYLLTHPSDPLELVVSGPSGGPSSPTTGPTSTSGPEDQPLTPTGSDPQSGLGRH

This passage reports Kd, koff and kon results from US20230374127A1 (LG CHEM, published 2023).

This assay has as its target T1, human LILRB1 protein (LILRB1-His, RnD systems Cat. No. 8989-T2) (human, UniProt Q8NHL6 24-458, limits assumed).
T1 construct: Bought protein; also called LILRB1 antigen; the antigen, LILRB1; not shown: His tag
Put plainly: SPR, Biacore T200; antibody captured by anti-human IgG (Fc), LILRB1-His injected 25-400 nM. As to the method:
The binding affinities of the 19 antibodies, which were selected in Example 3, to the antigen, LILRB1, were measured using Biacore T200 (GE healthcare). An anti-human IgG (Fc) antibody (GE healthcare, Cat. No. BR-1008-39, final concentration of 25 μg/mL) was flowed at the flow rate of 5 μL/min for 360 seconds to be immobilized at 5000-7000 RU on Series S Sensor Chip CM5 (GE healthcare, Cat. No. BR-1005-30) using Amine Coupling Kit (GE healthcare, Cat. No. BR-1000-50).
Broadly, the Kd is the free concentration of one partner at which half of the binding sites on the other are occupied at equilibrium, for simple one-to-one binding. In the case of B1, the Kd came to 30.3 nM.
What is called koff is the rate constant with which the complex falls apart. The low end stands for a long-lived complex, the high end for a short-lived complex. In general, kon refers to the rate constant with which the complex forms. A high value points to faster complex formation. In turn, B2 showed a Kd of 4.32 nM, an off-rate (koff) of 0.000622 s⁻¹ and an on-rate constant (kon) of 144000 M⁻¹ s⁻¹.
B3: the equilibrium dissociation constant (Kd) was 409 nM, the off-rate (koff) was determined as 0.0663 s⁻¹ and the on-rate constant (kon) is 162000 M⁻¹ s⁻¹.
Regarding B4, the dissociation constant Kd came to 499 nM, the koff is 0.0341 s⁻¹ and the on-rate (kon) turned out to be 68300 M⁻¹ s⁻¹.
In turn, B5 returned a Kd of 83.3 nM, an off-rate constant (koff) of 0.00963 s⁻¹ and an on-rate constant (kon) of 116000 M⁻¹ s⁻¹.
The like results for B6 were, in that order, 12.2 nM, 0.000106 s⁻¹ and 8660 M⁻¹ s⁻¹.
The like results for B7 were, in that order, 75.2 nM, 0.00464 s⁻¹ and 61700 M⁻¹ s⁻¹.
